Among the data in PubChem BioAssay AID2503 (Sanford-Burnham Center for Chemical Genomics, 2010) are IC50 values, retold here.

As a reminder, the IC50 is the concentration needed to halve the response being measured.

This assay deals with MCF-7/NOD2 cells, MDP-induced IL-8 secretion. Put plainly: NOD2 pathway IL-8 secretion inhibitors – MCF-7/NOD2 cells, MDP stimulus, set 2, SAR follow-up (AID 2503).

Calls of active or inactive are those of the source. The rule behind the calls is not given here.

For `Cc1ccc(S(=O)(=O)n2c(N)nc3ccccc32)cc1`, the IC50 is 18.8 µM.
Regarding `Nc1nc2ccccc2n1C(=O)c1ccc(Cl)cc1Cl`, the IC50 is inactive: > 25 µM.
